## Measured melting point values of organic chemicals

Melting points are in °C. "–" marks a cell with nothing listed here.

| SMILES | name | MP (°C) |
|---|---|---|
| O=Cc1ccc(-c2cccnc2)o1 | 5-(Pyridin-3-yl)furan-2-carbaldehyde | 105 |
| CC(C)c1ccccn1 | 2-(Propan-2-yl)pyridine | -141 |
| CC(=O)CN1C(=O)c2ccccc2S1(=O)=O | – | 145 |
| CCCCCCCCCCCC(=O)N(C)CCS(=O)(=O)[O-].[Na+] | Sodium N-lauroyl-N-methyltaurate | 192.5 |
| O=C(O)c1ccc(NS(=O)(=O)c2cccc([N+](=O)[O-])c2)cc1 | 4-(3-Nitro-benzenesulfonylamino)-benzoic acid | 268 |
| Oc1c(Cl)cc(Br)cc1Cl | 4-Bromo-2,6-dichlorophenol | 169 |
| O=C(NC(Cc1ccccc1)C(=O)O)c1ccc(Cl)cc1 (stereo unspecified) | 2-[(4-chlorobenzoyl)amino]-3-phenylpropanoic acid | 196 |
| Cl/C(=C(/Cl)c1ccccc1)c1ccccc1 | 1,2-Dichloro-1,2-diphenylethene (trans) | 144 |
| NC(=O)N1CCC(C(=O)O)CC1 | 1-carbamoylpiperidine-4-carboxylic Acid | 194 |
| Brc1cccc(-c2nnco2)c1 | 2-(3-bromophenyl)-1,3,4-oxadiazole | 75 |
| CC(C)=CCC[C@]1(C)[C@@H](CC=C(C)C)C[C@]2(CC=C(C)C)C(=O)C(CC=C(C)C)=C(O)[C@@]1(C(=O)C(C)C)C2=O | Hyperforin | 79.5 |
| CCOc1ccc(NS(=O)(=O)c2ccc(N)cc2)cc1 | 4-amino-N-(4-ethoxyphenyl)benzenesulfonamide | 146 |
| O=C(O)c1ccc2c(c1)C(=O)N(CC1CCCO1)C2=O (stereo unspecified) | – | 154 |
| Cc1c(F)cccc1CC#N | 2-(3-fluoro-2-methylphenyl)acetonitrile | 46.5 |
| Oc1ccc(SCCC(F)(F)C(F)(F)C(F)(F)C(F)(F)C(F)(F)C(F)(F)C(F)(F)C(F)(F)F)cc1 | 4-(1H,1H,2H,2H-Perfluorodecylthio)phenol | 92.5 |
| COc1ccc(C(=O)CCC(=O)O)c2ccccc12 | Menbutone | 172 |
| Nc1ccc(S(=O)(=O)Nc2cccnc2)cc1 | 4-amino-N-pyridin-3-ylbenzenesulfonamide | 257 |
| O=C(O)Cc1cc(=O)[nH]c(=O)[nH]1 | – | 325 |
| N=C(NO)c1ccccc1Cl | 2-Chloro-N-hydroxybenzene-1-carboximidamide | 89 |
| Cc1cc(=O)nc(NN)[nH]1 | 2-hydrazino-6-methylpyrimidin-4-ol | 214 |
| CC(=O)OC(OC(C)=O)c1ccc(S(=O)(=O)Cl)cc1 | [4-(Chlorosulfonyl)phenyl]methylene diacetate | 110 |
| CN(CC(=O)O)C(N)=O | Carbamoyl Sarcosine | 142 |
| Nc1nc(-c2cccc([N+](=O)[O-])c2)cs1 | 4-(3-Nitrophenyl)-1,3-thiazol-2-amine | 187 |
| FC(F)C(F)(F)C(F)(F)C(F)(F)C(F)(F)C(F)(F)C(F)(F)F | 1-Hydroperfluoroheptane | -42 |
| CC(=O)c1ccc(OC(C)C)cc1 | 1-(4-isopropoxyphenyl)ethanone | 43 |
| CNc1nc(C)cc(C)c1C#N | 4,6-dimethyl-2-(methylamino)nicotinonitrile | 148 |
| O=S1(=O)N=C(Cl)c2ccccc21 | Pseudosaccharin chloride | 122 |
| COc1ccc(NCC(=O)NN)cc1 | 2-(4-methoxyanilino)acetohydrazide | 96 |
| CC(=O)N(c1ccccc1)c1nc(C=O)cs1 | N-(4-formyl-1,3-thiazol-2-yl)-N-phenylacetamide | 151 |
| Cc1cc(C=O)c(C)n1-c1cccc(F)c1 | 1-(3-Fluorophenyl)-2,5-dimethyl-1H-pyrrole-3-carbaldehyde | 79 |
| COc1ccc(C(=O)O)cc1S(=O)(=O)Cl | 3-(chlorosulfonyl)-4-methoxybenzoic acid | 154 |
| N#CC1=C(N)CCC1 | 2-Aminocyclopent-1-ene-1-carbonitrile | 147 |
| Cc1nc2cc(C(=O)O)ccc2n1-c1ccccc1 | 2-Methyl-1-phenyl-1H-benzimidazole-5-carboxylic acid | 211 |
| Cc1cccc(OCCC(=O)O)c1 | 3-(3-methylphenoxy)propanoic acid | 100 |
| N#Cc1c(SCC(=O)O)nc2c(c1-c1ccco1)CCCC2 | – | 210 |
| Nc1ccc(S(=O)(=O)Nc2ccc(Cl)cc2)cc1 | 4-amino-N-(4-chlorophenyl)benzenesulfonamide | 181 |
| CC1(C)C2C(=O)N(Cc3ccccc3)C(=O)C21 (stereo unspecified) | – | 85 |
| S=c1[nH]nc(-c2cccs2)o1 | 5-(Thiophen-2-yl)-1,3,4-oxadiazole-2(3H)-thione | 163 |

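The OPERA project collected these measurements from public sources as training and test data for property models. One number stands for a compound and property, with no spread given. Method and conditions are not stated for these values. The measured form (salt, isomer or mixture) is not always the one drawn. Some upstream entries may be estimates or bounds without being marked so.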

Data: OPERA 2.9 data sets, kmansouri/OPERA on GitHub.